Results on two molecules are retold here after ChEMBL document CHEMBL1155782 (Bioorg Med Chem, 2008).

Protein sequences, listed by entry. Tags and fused reporters are not part of them. Lines headed by an entry give the natural chain unless they say otherwise; changes in a name come on top.
UniProt P22748: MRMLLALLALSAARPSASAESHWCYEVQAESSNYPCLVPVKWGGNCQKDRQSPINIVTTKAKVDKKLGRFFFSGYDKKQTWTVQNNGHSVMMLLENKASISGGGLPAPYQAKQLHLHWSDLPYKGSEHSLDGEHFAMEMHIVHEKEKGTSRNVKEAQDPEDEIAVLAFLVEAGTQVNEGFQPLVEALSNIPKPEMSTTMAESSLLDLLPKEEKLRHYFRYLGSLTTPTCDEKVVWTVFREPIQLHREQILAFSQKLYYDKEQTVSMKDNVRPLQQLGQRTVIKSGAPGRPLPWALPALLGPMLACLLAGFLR
UniProt Q9Y2D0: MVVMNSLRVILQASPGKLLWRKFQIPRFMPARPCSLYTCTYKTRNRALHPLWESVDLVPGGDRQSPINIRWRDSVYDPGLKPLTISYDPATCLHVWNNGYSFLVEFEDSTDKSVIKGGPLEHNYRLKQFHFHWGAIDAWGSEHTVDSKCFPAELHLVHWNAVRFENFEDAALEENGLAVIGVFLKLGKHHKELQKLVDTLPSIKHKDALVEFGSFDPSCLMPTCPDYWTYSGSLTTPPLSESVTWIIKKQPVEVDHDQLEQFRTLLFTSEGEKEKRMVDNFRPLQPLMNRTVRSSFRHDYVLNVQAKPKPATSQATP

Molecules are shown by their SMILES.

In assay [1] the target is Carbonic anhydrase 4 (Homo sapiens, UniProt P22748).
In assay [2] the target is Carbonic anhydrase 5B, mitochondrial (Homo sapiens, UniProt Q9Y2D0).

What is called Ki is the dissociation constant of the complex between target and ligand, obtained from inhibition or displacement. Low values mean tighter binding, high ones weaker binding. Molecule `Oc1ccccc1O` [CATECHOL] gave a Ki in assay [1] of 10.9 µM.
`O=C(O)c1ccc(O)cc1` [PARABEN] displayed a Ki in assay [2] of 10.5 µM.
